Literature values in patent US8022029B2, “Fabric softening compositions comprising polymeric materials” (priority 2007, dated 2011).

Details: Table 4; cited from earlier work

In the case of C=CCc1ccc(O)c(OC)c1 [Eugenol, eugenol], the “Log P” value is listed as 2.30.
